For eleven molecules, EC50, IC50 and Ki results are on record in patent US8927500B2, “Peptidomimetic macrocycles” (Aileron Therapeutics, Inc., priority 2012, dated 2015).

Sequences of proteins named here, by UniProt entry; tags and fusion partners are left off. Residues count along the entry.
UniProt Q00987, 1-125: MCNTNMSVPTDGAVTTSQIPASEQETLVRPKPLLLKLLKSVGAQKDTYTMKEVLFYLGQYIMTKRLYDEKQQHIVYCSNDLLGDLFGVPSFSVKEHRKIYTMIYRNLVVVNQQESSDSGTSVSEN

As usually defined, the EC50 is the midpoint of the concentration-response curve. As usually defined, the IC50 is the concentration at which inhibition is half-maximal. A word on the Ki: it is a measure of affinity in units of concentration, obtained from inhibition or displacement.

Assay [1] concerns SJSA-1 cells. Description: Cell viability assay (MTT), SJSA-1. Particulars: read-out: SJSA-1 EC50 (72 h).
Assay [2] addresses T1, MDMX (Homo sapiens, UniProt O15151).
T1 sequence (O15151 1-125): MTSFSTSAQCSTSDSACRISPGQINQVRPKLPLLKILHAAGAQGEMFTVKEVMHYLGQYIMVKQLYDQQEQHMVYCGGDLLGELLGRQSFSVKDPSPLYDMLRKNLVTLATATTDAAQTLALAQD
As to the kind of experiment: Competitive fluorescence polarization assay for MDMX. It counts as binding. Particulars: competitive FP assay; for IC50: read-out: IC50 (MDMX); for Ki: read-out: Ki (MDMX). (Fluorescence polarisation rises when a labelled molecule tumbles more slowly, as on binding a larger partner.)

For assay [3], the system named is RKO cells. As to the kind of experiment: Cell viability assay (MTT), RKO. The following applies: read-out: RKO EC50 (72 h).
For assay [4], the target named is MDM2 (Homo sapiens, UniProt Q00987). Description: Competitive fluorescence polarization assay for MDM2. The following applies: competitive FP assay. It is filed as binding.

Regarding `CC(=O)N[C@@H](CC(C)C)C(=O)N[C@H](C(=O)N[C@@H](Cc1ccccc1)C(=O)N[C@]1(C)CCCCCCC#CCCC[C@@](C)(C(=O)N[C@@H](C)C(=O)N[C@@H](C)C(=O)N[C@@H](C)C(=O)N[C@@H](C)C(=O)N[C@@H](C)C(=O)N[C@H](C)C(N)=O)NC(=O)[C@H](CC(C)C)NC(=O)[C@H](CCC(N)=O)NC(=O)[C@H](C)NC(=O)[C@H](Cc2c[nH]c3ccccc23)NC(=O)[C@H](Cc2ccc(O)cc2)NC(=O)[C@H](C)NC1=O)[C@@H](C)O` [compound 665], the concentration giving a half-maximal response (EC50) in assay [1] was below 5 µM.
Still for that read-out and setting: the same measure for `CCCC[C@H](NC(=O)[C@]1(C)CCCC=CCCC[C@]2(C)NC(=O)[C@H](C)NC(=O)[C@H](Cc3c[nH]c4ccccc34)NC(=O)[C@H](Cc3ccc(O)cc3)NC(=O)[C@H](C)NC(=O)[C@](C)(NC(=O)[C@H](Cc3ccccc3)NC(=O)[C@@H](NC(=O)[C@H](CC(C)C)NC(C)=O)[C@@H](C)O)CCCCCCC=CCCC[C@](C)(NC(=O)[C@H](CC(C)C)NC2=O)C(=O)N[C@@H](CO)C(=O)N1)C(N)=O` [compound 12]: 15 to 30 µM.
As for `CC(=O)N[C@@H](CC(C)C)C(=O)N[C@H](C(=O)N[C@@H](Cc1ccccc1)C(=O)N[C@]1(C)CCCCCCC=CCCC[C@]2(C)NC(=O)[C@H](CC(C)C)NC(=O)[C@](C)(CCCC=CCCC[C@@](C)(C(=O)N[C@@H](C)C(N)=O)NC(=O)[C@H](CO)NC2=O)NC(=O)[C@H](C)NC(=O)[C@H](Cc2c[nH]c3ccccc23)NC(=O)[C@H](Cc2ccc(O)cc2)NC(=O)[C@H](C)NC1=O)[C@@H](C)O` [compound 13], the concentration giving a half-maximal response (EC50) in assay [1] lay within 5 to 15 µM.
With `CC[C@H](C)[C@H](NC(=O)[C@H](C)NC(=O)[C@H](C)NC(=O)[C@]1(C)CCCC=CCCCCCC[C@@](C)(NC(=O)[C@H](Cc2ccccc2)NC(=O)[C@@H](NC(=O)[C@H](CC(C)C)NC(C)=O)[C@@H](C)O)C(=O)N[C@@H](C)C(=O)N[C@@H](Cc2ccc(O)cc2)C(=O)N[C@@H](Cc2c[nH]c3ccccc23)C(=O)N[C@@H](C)C(=O)N[C@@H](CCC(N)=O)C(=O)N[C@@H](CC(C)C)C(=O)N1)C(=O)N[C@H](CC(C)C)C(N)=O` (single isomer, unassigned) [compound 81], the IC50 in assay [2] and in assay [4] was 100 to 1000 nM throughout. Besides, the inhibition constant Ki in assay [2] and in assay [4] was 10 to 100 nM throughout. In addition, the EC50 in assay [3] lay within 5 to 15 µM.
Turning to `CC(=O)N[C@@H](CC(C)C)C(=O)N[C@H](C(=O)N[C@@H](Cc1ccccc1)C(=O)N[C@]1(C)CCCCCCC=CCCC[C@@](C)(C(=O)N[C@@H](CO)C(=O)N[C@@H](C)C(=O)N[C@@H](C)C(N)=O)NC(=O)[C@H](CC(C)C)NC(=O)[C@H](CCC(N)=O)NC(=O)[C@H](C)NC(=O)[C@H](Cc2c[nH]c3ccccc23)NC(=O)[C@H](Cc2ccc(O)cc2)NC(=O)[C@H](C)NC1=O)[C@@H](C)O` [compound 11], in assay [2], the IC50 lay in the range of 100 to 1000 nM and the inhibition constant (Ki) lay in the range of 10 to 100 nM. Also, in assay [3], the 50% effective concentration (EC50) was below 5 µM. In assay [4], this molecule showed an IC50 of 10 to 100 nM and a Ki below 10 nM.
With `CC(=O)N[C@@H](Cc1c[nH]c2ccccc12)C(=O)N[C@H](C(=O)N[C@@H](Cc1ccccc1)C(=O)N[C@]1(C)CCCCCCC=CCCC[C@@](C)(C(=O)N[C@@H](C)C(=O)N[C@H](C(=O)N[C@@H](C)C(=O)N[C@H](C)C(=O)N[C@H](C)C(N)=O)C(C)C)NC(=O)[C@H](CC(C)C)NC(=O)[C@H](CCC(N)=O)NC(=O)[C@H](CO)NC(=O)[C@H](Cc2c[nH]c3ccccc23)NC(=O)[C@H](Cc2ccc(O)cc2)NC(=O)[C@H](C(C)C)NC1=O)[C@@H](C)O` (single isomer, unassigned) [compound 106], the half-inhibitory concentration (IC50) in assay [2] and in assay [4] was 100 to 1000 nM in each case. Further, the Ki in assay [2] and in assay [4] was 10 to 100 nM in each case.
In the case of `CC[C@H](C)[C@H](NC(=O)[C@H](C)NC(=O)[C@H](C)NC(=O)[C@]1(C)CCCC=CCCCCCC[C@@](C)(NC(=O)[C@H](Cc2ccccc2)NC(=O)[C@@H](NC(=O)[C@H](CC(C)C)NC(C)=O)[C@@H](C)O)C(=O)N[C@@H](C)C(=O)N[C@@H](Cc2ccc(O)cc2)C(=O)N[C@@H](Cc2c[nH]c3ccccc23)C(=O)N[C@@H](C)C(=O)N[C@@H](CCC(N)=O)C(=O)N[C@@H](CC(C)C)C(=O)N1)C(=O)N[C@H](CC(C)C)C(N)=O` (single isomer, unassigned) [compound 82], in assay [2], the 50% inhibitory concentration (IC50) is 100 to 1000 nM and the Ki lay in the range of 10 to 100 nM. In assay [4], this molecule yielded an IC50 of 100 to 1000 nM and an inhibition constant Ki of 10 to 100 nM.
In the case of `CCCC[C@H](NC(=O)[C@H](CCC(N)=O)NC(=O)[C@H](Cc1c[nH]cn1)NC(=O)[C@]1(C)CCCC=CCCCCCC[C@@](C)(NC(=O)[C@H](Cc2ccccc2)NC(=O)[C@@H](NC(=O)[C@H](CC(C)C)NC(C)=O)[C@@H](C)O)C(=O)N[C@@H](C)C(=O)N[C@@H](Cc2ccc(O)cc2)C(=O)N[C@@H](Cc2c[nH]c3ccccc23)C(=O)N[C@@H](C)C(=O)N[C@@H](CCC(N)=O)C(=O)N[C@@H](CC(C)C)C(=O)N1)C(=O)N[C@@H](C(N)=O)C(C)C` (single isomer, unassigned) [compound 46], in assay [2], the IC50 is 10 to 100 nM and the Ki fell in the range of 10 to 100 nM. Besides, in assay [4], the IC50 was in the range of 10 to 100 nM and the Ki is below 10 nM.
For `CC(=O)N[C@@H](Cc1c[nH]c2ccccc12)C(=O)N[C@H](C(=O)N[C@@H](Cc1ccccc1)C(=O)N[C@]1(C)CCCCCCC=CCCC[C@@](C)(C(=O)N[C@@H](C)C(=O)N[C@H](C(=O)N[C@@H](C)C(=O)N[C@H](C)C(N)=O)C(C)C)NC(=O)[C@H](CC(C)C)NC(=O)[C@H](CCC(N)=O)NC(=O)[C@H](CO)NC(=O)[C@H](Cc2c[nH]c3ccccc23)NC(=O)[C@H](Cc2ccc(O)cc2)NC(=O)[C@H](Cc2ccccc2)NC1=O)[C@@H](C)O` (single isomer, unassigned) [compound 101], the IC50 was in the range of 100 to 1000 nM in assay [2] and 10 to 100 nM in assay [4]. Besides, the Ki was 10 to 100 nM in assay [2] and below 10 nM in assay [4].
Turning to `CC(=O)N[C@@H](CC(C)C)C(=O)N[C@H](C(=O)N[C@@H](Cc1ccccc1)C(=O)N[C@]1(C)CCCCCCC=CCCC[C@@](C)(C(=O)N[C@@H](C)C(=O)N[C@H](C(=O)N[C@@H](CCC(N)=O)C(N)=O)C(C)C)NC(=O)[C@H](CC(C)C)NC(=O)[C@H](CCC(N)=O)NC(=O)[C@H](C)NC(=O)[C@H](Cc2c[nH]c3ccccc23)NC(=O)[C@H](Cc2ccc(O)cc2)NC(=O)[C@H](C)NC1=O)[C@@H](C)O` (single isomer, unassigned) [compound 110], in assay [2], the half-maximal inhibitory concentration (IC50) is 100 to 1000 nM and the Ki lay within 10 to 100 nM. In assay [4], the IC50 is 100 to 1000 nM and the inhibition constant (Ki) was below 10 nM.
As for `CC(=O)N[C@@H](CC(C)C)C(=O)N[C@H](C(=O)N[C@@H](Cc1ccccc1)C(=O)N[C@]1(C)CCCCCCC=CCCC[C@@](C)(C(=O)N[C@@H](C)C(=O)N[C@H](C(=O)NCC(N)=O)C(C)C)NC(=O)[C@H](CC(C)C)NC(=O)[C@H](CCC(N)=O)NC(=O)[C@H](C)NC(=O)[C@H](Cc2c[nH]c3ccccc23)NC(=O)[C@H](Cc2ccc(O)cc2)NC(=O)[C@H](C)NC1=O)[C@@H](C)O` (single isomer, unassigned) [compound 108], in assay [2], the IC50 is 100 to 1000 nM and the Ki was in the range of 10 to 100 nM. Besides, in assay [4], the IC50 was in the range of 10 to 100 nM and the inhibition constant (Ki) is below 10 nM.
